{
  "source": "paper PMC8972196",
  "about": "“A Set of Experimentally Validated Decoys for the Human CC Chemokine Receptor 7 (CCR7) Obtained by Virtual Screening” (Frontiers in Pharmacology, 2022)",
  "target": "T1, human CCR7 (Homo sapiens, UniProt P32248)",
  "T1 construct": "expressed in transfected cells",
  "T1 sequence (P32248 25-378)": "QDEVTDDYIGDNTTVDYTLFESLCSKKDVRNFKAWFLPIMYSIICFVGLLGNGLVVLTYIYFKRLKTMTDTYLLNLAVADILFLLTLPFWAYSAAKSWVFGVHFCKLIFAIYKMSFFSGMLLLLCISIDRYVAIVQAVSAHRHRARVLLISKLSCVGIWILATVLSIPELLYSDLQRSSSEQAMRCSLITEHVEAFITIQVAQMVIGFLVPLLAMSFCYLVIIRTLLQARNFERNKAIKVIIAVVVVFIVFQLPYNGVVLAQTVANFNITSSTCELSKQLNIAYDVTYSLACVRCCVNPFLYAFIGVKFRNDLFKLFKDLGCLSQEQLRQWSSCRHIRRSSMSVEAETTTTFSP",
  "test": "CCL19-induced calcium mobilization assay, U87.CD4 cells expressing CCR7",
  "format": "cell-based",
  "conditions": "inhibition of CCL19 induced intracellular calcium flux; Mean ± SD of at least three independent experiments",
  "method": "U87.CD4 cells that stably express either human CCR7, CXCR2, CCR5 or CXCR4 were seeded (20,000 cells/well) in gelatin-coated black-walled polystyrene 96-well plates with clear bottom and incubated overnight at 37°C and 5% CO2. […] Culture medium was removed, and cells were incubated for 45 min at room temperature in the dark. […] Exactly the same protocol was used to record calcium responses in Chinese hamster ovary (CHO)-K1 cells, upon stimulation with adenosine triphosphate (ATP, purchased from Sigma).",
  "data": [
    {"substance": "Maraviroc [reference compound]", "values": [
      {"measurement": "IC50", "value": "> 50", "unit": "µM"}
    ]}
  ]
}
